Measurements reported in PubChem BioAssay AID504607 (Sanford-Burnham Center for Chemical Genomics, 2011).
The list shows a part of the results, in another mix than the full data. The source made the active and inactive calls.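 Rule for the calls: active = mean inhibition at 8 µM reaching about 37%, which flags the compound as non-specific (limit read from the data); inactive = the rest.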

Experiment: luminescence decrease from intact luciferase reporter – cell-based, single concentration, SaOS-2, counter-screen for Mdm2/MdmX interaction inhibitor project, confirmation (AID 504607);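 note: p53-null SaOS-2 cells with luciferase driven by a doxycycline-inducible promoter; compound on cells about two nights before reading with doxycycline added after day one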
Details: SaOS-2 full-length luciferase counterscreen, at 8 µM, active compounds read high

Row | Structure (SMILES) | inhibition
1 | CN(C)C(=O)c1cc([N+](=O)[O-])cc2c1-c1c(cc([N+](=O)[O-])cc1[N+](=O)[O-])C2=O | inactive: 0.81%
2 | CCC1=CC2Cc3nc4ccc(Cl)cc4c(N)c3C(C1)C2 (stereo not drawn) | active: 62.6%
3 | C[N+]1=C2C=CC=CC=C2SC12C([N+](=O)[O-])=CC([N+](=O)[O-])=C[C-]2[N+](=O)[O-] (stereo not drawn) | active: 41.3%
